Earlier results on one compound are cited in paper PMC3792958, “Olomoucine II, but Not Purvalanol A, Is Transported by Breast Cancer Resistance Protein (ABCG2) and P-Glycoprotein (ABCB1)” (PLoS ONE, 2013).

In one data set the test system is ABCB1. The note with it: cited from earlier work.
Data set [1] deals with ABCG2. Set-up: method as in PMID 18841444. Conditions: in vitro hematoporphyrin transport, Sf9 membrane vesicles; cited from earlier work.
For data set [2], the system named is ABCG2. The note with it: in vitro and in situ levels; cited from earlier work.

Take `CC[C@H](CO)Nc1nc(NCc2ccccc2)c2ncn(C(C)C)c2n1` [roscovitine]: in the data set on ABCB1, the ABCB1 substrate affinity result was “high affinity ABCB1 substrate”. In addition, the ABCG2 inhibition entry in the data set on ABCG2 [1] is reported as “ABCG2 inhibition”. The “inhibition of ABCG2” value in the data set on ABCG2 [2] is recorded as “inhibition of ABCG2”.
